The nature of the test: Ki ratio measured as Ki of sigma-2 receptor to that of sigma-1 receptor.

Consider `N#Cc1ccc(OCC2CCN(CCCF)CC2)cc1`, for which the Ratio is 33.5.

Source of the values: ChEMBL document CHEMBL1130041, “Halogenated 4-(phenoxymethyl)piperidines as potential radiolabeled probes for sigma-1 receptors: in vivo evaluation of [123I]-1-(iodopropen-2-yl)-4-[(4-cyanophenoxy)methyl]pip eri dine” (J Med Chem, 1997).
